25 molecules from PubChem BioAssay AID662 (National Center for Advancing Translational Sciences (NCATS), 2007) can be followed below.

The list shows a part of the results, in another mix than the full data. Records with an inconclusive call do not appear. Active and inactive are the calls of the source. Calls come from the whole dose curve; as a rule, active = well fitted activation curve with a large enough effect in the signal ratio, with a control signal flat (not every such curve was filed as active); inconclusive = small, poorly fitted or top-dose-only effect, or effect the other way, or a change in a side signal; inactive = flat fitted curve, though single readings scatter; the % refers to the signal ratio.

This assay in a line: Cell signaling CRE-BLA (Fsk stim). Note: % of control where 0% means no effect. The settings on record: CHO CRE-bla reporter (cAMP response element driving beta-lactamase), forskolin EC10, beta-lactamase ratio; at 38.2 µM (top of the series) unless noted. An excerpt:
NIH Molecular Libraries Screening Centers Network [MLSCN]
NIH Chemical Genomics Center [NCGC]
Assay Provider: Marshall W. Nirenberg, U.S. National heart lung & blood institute
Memories persist for different lengths of time, from seconds or minutes to a lifetime. There are two kinds of memory: short-term memory (STM) and long-term memory (LTM). STM lasts for minutes to hours, which maybe mediated by modifications of molecules involved in synaptic functions. LTM lasts for days or longer, and may be due to the formation of new synapses or restructuring of existing synapses. LTM, but not STM, requires gene transcription and synthesis of proteins. CREB (cyclic-AMP Responsive Element Binding Protein) is one of the candidates plays an important role for enhancement of some types of LTM. CREB, a family of transcription factors, regulates the transcription of genes containing cAMP Responsive Elements (CRE). CRE is a nucleotide sequence often found in the promoter regions of genes that are binding sites for CREB.
Using a beta-lactamase reporter-gene under control of cAMP responsive element, a cell-based assay [CellSensor(TM) CRE-bla CHO developed by Invitrogen Corp.] was used to measure forskolin-induced signaling. Library compounds were measured for their ability to modulate positively or negatively the action of EC10 NKH 477, a water soluble forskolin, on reporter gene activity. Compounds were screened in a titration series in 1536-well format. Positive and negative modulators were identified based on the AC50 values derived from the screening data.
NCGC Assay Protocol Summary
2000 cells/5uL in Opti-MEM medium containing 0.5% dialyzed FBS, 0.1 mM NEAA, 1 mM sodium pyruvate and 10 mM HEPES was dispensed into 1536-well plates and cells were cultured at 37 degrees Celsius overnight. […] And then the plates were incubated at 37 degrees Celsius for 3 hours. 1 uL of CCF4-dye mixture was added to each well. After incubated at room temperature for 2 hours the plates were measured on an EnVision plate reader at Excitation 405nm, Emission1=460nm and Emission 2=530nm. The %Activity was determined from the ratio of 460nm/530nm.
Keywords: NIH Roadmap, MLSCN, MLSMR, qHTS, NCGC, CRE, beta-lactamase reporter-gene assay.
Regarding `C/C1=C2N=C(/C=C3N=C(/C(C)=C4\[N-][C@@](C)([C@H]5N=C1[C@@](C)(CCC(=O)NC[C@H](C)OP(=O)([O-])O[C@@H]1[C@H](O)[C@H](n6cnc7cc(C)c(C)cc76)O[C@@H]1CO)[C@@H]5CC(N)=O)[C@](C)(CC(N)=O)[C@H]4CCC(N)=O)[C@@](C)(CC(N)=O)[C@@H]\3CCC(N)=O)C(C)(C)[C@@H]/2CCC(N)=O.[C-]#N.[Co+3]`, the activity change, negative = inhibition was inactive: 4.39% [at 17.1 µM]. Take `N#[O+].[C-]#N.[C-]#N.[C-]#N.[C-]#N.[C-]#N.[Fe+2].[Na+].[Na+]`: the activity change, negative = inhibition is inactive: 5.6%. In the case of `COc1ccccc1OP(C)(=O)Nc1c(C)n(C)n(-c2ccccc2)c1=O` (stereo not given), the activity change, negative = inhibition was inactive: -3.92%. Turning to `CP(=O)(Oc1ccccc1)N1CCOC1=O` (stereo not given), the activity change, negative = inhibition was inactive: -0.243%. `CP(=O)(Nc1ccccn1)Oc1ccccc1` (stereo not given): the activity change, negative = inhibition was inactive: 2.37%. The same measure for `COc1ccccc1OP(C)(=O)Nc1ccc(C)c(C)c1` (stereo not given): inactive: 5.63%. To `Cc1nc2ccc3ccccc3c2o1.O=[N+]([O-])c1cc([N+](=O)[O-])c(O)c([N+](=O)[O-])c1` belongs inactive: -14.1%; to `CCC(C)(OO)OOC(C)(CC)OO` (stereo not given), inactive: 4.68%. To `CCOP(C)(=S)SCC(=O)NC(C)(CC)C(=O)O` (stereo not given) belongs inactive: 28.4%; to `CCOP(=O)(CC)OCC`, inactive: 9.29%; to `CP(=O)(Nc1ccc2c(c1)OCCO2)Oc1ccccc1` (stereo not given), inactive: 6.49%. Turning to `[NH4+].[O-][Cl+3]([O-])([O-])[O-]`, the activity change, negative = inhibition was inactive: -19.4%.

Take `NNC(NN)NN.n1nc(-c2nn[nH]n2)n[nH]1`: the activity change, negative = inhibition is inactive: 5.97% [at 7.6 µM]. To `CN(C)CCOC(=O)C(O)(c1ccccc1)C1CCCCC1` (stereo not given) belongs inactive: -4.66%; to `Cc1c([N+](=O)[O-])cccc1[N+](=O)[O-]`, inactive: -7.97%; to `Cc1nc2ccc3ccccc3c2s1.O=[N+]([O-])c1cc([N+](=O)[O-])c(O)c([N+](=O)[O-])c1`, inactive: 5.16%. The same measure for `Cc1ccc(C)c(NP(C)(=O)Oc2ccccc2)c1` (stereo not given): inactive: 2.08%; for `O=[N+]([O-])c1cccc([N+](=O)[O-])c1`: inactive: -19.5%. To `Cc1ccc([N+](=O)[O-])cc1[N+](=O)[O-]` belongs inactive: -10.1%. In the case of `COc1ccccc1OP(C)(=O)Nc1ccc(C)cc1` (stereo not given), the activity change, negative = inhibition was inactive: 11.4%. To `Cc1ccc(NP(C)(=O)Oc2ccccc2)c(C)c1` (stereo not given) belongs inactive: -2.06%; to `O=[N+]([O-])[O-].[NH4+]`, inactive: -7.69%. To `CCOP(C)(=S)SCC(=O)NC(C)C(=O)O` (stereo not given) belongs inactive: 7.08%; to `N1=C(c2nnc(-c3nn[nH]n3)nn2)NNN1`, inactive: -2.3% [at 7.6 µM]. As to `CP(=S)(Nn1cnnc1)Oc1ccccc1` (stereo not given), the activity change, negative = inhibition was inactive: -12%.
